The values that follow are results of earlier work, collected in patent US12458653B2, “Cannabis based therapeutic and method of use” (priority 2018, dated 2025).

Where two headings read alike, the source gives them in different places.

The conditions of the series: for maximum Δ9-THC plasma concentration: oral administration.

Regarding `CCCCCc1cc(O)c2c(c1)OC(C)(C)[C@@H]1CCC(C)=C[C@@H]21` [Δ9-THC, delta-9 tetrahydrocannabinol], the “maximum Δ9-THC plasma concentration” value was 2.7 to 6.3 ng/mL (15 mg) and 4.4 to 11 ng/mL (20 mg). Moreover, the “time to maximum Δ9-THC plasma concentration” value (oral ingestion) is 1 to 2 h.
